The target of one assay is μ opioid receptor (Cavia porcellus, UniProt A0ACM8Q262). Nature of the assay: Binding to μ sites (3H-DAGO), receptor affinity study. As to conditions: read-out: OPIATE RECEPTORS BINDING ki MU, guinea pig brain homogenate, 40 min, 25° C.
The next assay deals with kappa opioid receptors (Cavia porcellus, UniProt P41144). Nature of the assay: Binding to K sites (tritiated Ethylketocyclazocine), receptor affinity study. As to conditions: read-out: OPIATE RECEPTORS BINDING ki KAPPA; guinea pig brain homogenate; 3H-Ethylketocyclazocine with 100 nM DADLE and 100 nM DAGO; 40 min, 25° C.
The next assay relates to mice (tail-flick). Nature of the assay: Mouse Tail-flick test. As to conditions: s.c., 30 min after dosing, calculated for the free base. The format is in vivo.

The chains behind the UniProt entries cited, without tags or fusion partners. Where a name states a change or a piece, a line headed by the entry shows the natural chain unless it says otherwise. Residues count along the entry.
UniProt A0ACM8Q262, 1-400: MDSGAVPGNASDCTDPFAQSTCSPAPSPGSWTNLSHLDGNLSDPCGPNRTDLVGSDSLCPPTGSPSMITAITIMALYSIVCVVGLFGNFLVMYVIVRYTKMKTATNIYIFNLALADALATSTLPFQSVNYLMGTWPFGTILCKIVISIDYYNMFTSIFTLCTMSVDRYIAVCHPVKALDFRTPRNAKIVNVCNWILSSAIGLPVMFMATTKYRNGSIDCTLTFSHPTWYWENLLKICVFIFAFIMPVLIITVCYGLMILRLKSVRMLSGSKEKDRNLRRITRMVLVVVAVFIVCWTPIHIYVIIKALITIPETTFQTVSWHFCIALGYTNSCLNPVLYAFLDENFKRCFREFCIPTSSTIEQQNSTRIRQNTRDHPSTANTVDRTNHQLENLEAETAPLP
UniProt P41144: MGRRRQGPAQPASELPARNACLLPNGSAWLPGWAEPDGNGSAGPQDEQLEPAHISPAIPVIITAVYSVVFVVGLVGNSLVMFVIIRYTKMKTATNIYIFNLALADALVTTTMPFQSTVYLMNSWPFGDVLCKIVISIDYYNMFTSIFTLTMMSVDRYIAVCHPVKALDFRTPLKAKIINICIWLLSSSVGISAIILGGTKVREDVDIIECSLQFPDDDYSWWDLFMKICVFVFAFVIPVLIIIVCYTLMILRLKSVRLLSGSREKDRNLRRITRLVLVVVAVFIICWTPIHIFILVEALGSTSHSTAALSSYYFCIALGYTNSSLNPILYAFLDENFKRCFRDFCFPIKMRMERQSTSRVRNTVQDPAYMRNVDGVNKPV

Each structure is given as a SMILES string.

One may read the Ki as the dissociation constant of the complex between target and ligand, obtained from inhibition or displacement.

For `CN(C(=O)Cc1ccc(Cl)c(Cl)c1)C(CN1CCCC1)c1ccsc1` (stereo not drawn), the values for the Ki on μ opioid receptor and on kappa opioid receptors were 144 nM and 1.99 nM, respectively. The “ANALGESIA TAIL-FLICK ED50 (a)” value in the assay on mice (tail-flick) was 0.127 mg/kg.

Source of the values: patent US4999359A, “Heterocyclic ethylene diamine compounds and their pharmaceutical compositions and methods” (Dr. Lo Zambeletti S.p.A., priority 1988, dated 1991).
